# From patent publication US9145449B2, “STIP1 polypeptides and uses thereof” (Chang Gung Memorial Hospital, Linkou Branch, priority 2013, dated 2015)
# What was measured:
# [1] = system: ovarian cancer cells (MDAH2774); assay: MTT cell viability of transfected MDAH2774 cells; assay type: cell-based, human
# Excerpt: Human ovarian cancer cell lines TOV112D, TOV21G, SKOV3, MDAH2774, ES2, MDAH2774, BG1; human endometrial cancer cell line RL95-2, human pancreatic cancer cell line BxPC3, breast cancer cell line (MCF7) and colon cancer cell line (HT29) were obtained from ATCC (Rockville, Md., USA). Lung cancer cell line CL1-0 and nasopharyngeal carcinoma cell line NPC-BM1 were obtained from Dr. C C Wu (Department of Medical Biotechnology and Laboratory Science, Chang-Gung University, Taoyuan, Taiwan), Wu et al. Mol. Cell Proteomics 9(6):11100 (20101). Mouse ovarian cancer cell line MOSEC was obtained from Dr. C L Chang (Department of Obstetrics and Gynecology, Mackay Memorial Hospital, Taipei, Taiwan), Chang et al. Cancer Research 67:10047 (2007). TOV112D, TOV21G, SKOV3, MDAH2774, ES2 and RL95-2 were cultured in Dulbecco's modified Eagle's medium/F-12 supplemented with 10% fetal bovine serum and antibiotics at 37° C. in 5% CO2 humidified atmosphere. BxPC3, CL1-0, NPC-BM1 and MOSEC cells were cultured in RPMI 1640 media supplemented with 10% fetal bovine serum.
# Cancer cells were transfected with an STIP1 antibody in PLUSin reagent (Polyplus-transfection Inc., NY, USA) according to manufacturer's protocol. In summary, 2×10^3˜6×10^3 cancer cells were seeded in a 96-well plate overnight, followed by PBS rinse and the addition of 180 μl of OPTI-MEM. 0.6 μg of mouse STIP1 antibody were diluted in 20 mM HEPES, mixed with 1.2 μl of PLUSin by vortexing, followed by incubation at room temperature for 15 min. The antibody/PLUSin mixture was added to the cancer cells by gentle swirling the plate. The STIP1 antibody and the control IgG used in the working examples described herein are commercially available from Abnova Biotechnology Inc., (Taipei City, Taiwan). The STIP1 antibody in the working examples described herein can be used to detect recombinant full length STIP1 (SEQ ID NO:3).
# 1˜2×10^4 Cancer cells were plated per well in 96-well plates overnight, then transfected with a mouse STIP1 antibody (commercially available from Abnova Biotechnology Inc.) for 48 h before they were assessed. The inhibitory effect of the STIP1 antibody on the cancer cells was measured by the MTT [3-(4,5-Dimethylthiazol-2-yl)-2,5-Diphenyltetrazolium Bromide]method (Sigma St. Louis, Mo.). The optical density was measured at 570 nm using an automated scanning multiwell spectrophotometer (Wallac Victor2 spectrophotometer; PerkinElmer, Boston, Mass., USA).
# Given the neutralizing effect of STIP1 polypeptide 520-543 (SEQ ID NO:1) on STIP1 antibody, co-transfecting STIP1 antibody and STIP1 polypeptide 520-543 in cancer cells may reduce the suppression effect of STIP1 antibody. FIG. 10A and Table 1 show cell viability of ovarian cancer cells (MDAH2774) transfected with STIP1 antibody only (positive control) and STIP1 antibody with various concentrations of STIP1 polypeptide 520-543. Cell viability was evaluated using MTT assays. […] For example, the cell viability for STIP1 antibody was 78.81% (Table 1), the cell viability for 25 uM of STIP1 polypeptide 520-543 was 102% (Table 2), and the cell viability for STIP1 antibody and […] of STIP1 polypeptide 520-543 was 56.38% (Table 1). Similarly, the cell viability for 200 uM of STIP1 polypeptide 520-543 was 28.64% (Table 2), and the cell viability for STIP1 antibody and […] of STIP1 polypeptide 520-543 was 27.67% (Table 1).
# Bcl-XL = assay: Western blot of Bcl-XL protein (FIG. 15B); assay type: cell-based; details: western blot FIG. 15B
# Experimental: (§1) Cell lysates were prepared with a RIPA buffer (150 mM NaCl, 20 mM Tris-Cl pH7.5, 1% Triton X-100, 1% NP40, 0.1% SDS, 0.5% deoxycholate) containing freshly added proteinase and phosphatase inhibitors (Bionovas, Toronto). Protein concentration was measured using the Bradford method. Fifty μg of each sample was electrophoresed in 10% SDS-polyacrylamide gels, and transferred to nitrocellulose membranes. STIP1 antibody was commercially available from Abnova Biotechnology and Santa Cruz Biotechnology, Santa Cruz, Calif., actin was commercially available from Sigma, the corresponding horseradish peroxidase-conjugated antibody was commercially available from Santa Cruz Biotechnology, enhanced chemiluminescence reagent was commercially available from Millipore Inc. (Millipore, Billerica, Mass.). The signal intensity of autoradiogram was quantified using the UN-SCAN-IT software (Silk Scientific, Orem, Utah), and relative intensity of each sample was normalized by the corresponding actin intensity. For antibody neutralization assay, cancer cells were cultured in serum-free medium for 24 h, and treated with rhSTIP1 for another 24 h in the presence or absence of the STIP1 monoclonal antibody, which were pre-incubated at 37° C. for 1 h. Endogenous phospho-SMAD1/5 was detected with western blot analysis.
# STIP1 antibody = assay: Dot blot of STIP1 polypeptides incubated with STIP1 antibody (FIG. 9A); assay type: binding; details: dot blot on nylon membrane, rank among STIP1 polypeptides
# Experimental: In FIG. 9A, the following STIP1 polypeptides were dot blotted on a nylon membrane and incubated with an STIP1 antibody: STIP1 polypeptides with amino acid (a.a.) sequence number 445-469, 458-482, 470-494, 482-506 (SEQ ID NO:2), 495-519, 507-531, and 520-543 (SEQ ID NO:1). The entire rhSTIP1 (a.a. sequence number 1 to 543) was used as positive control (the left lane).
# JAK2 = assay: Western blot of JAK2 protein in cancer cells (FIG. 15A, 15B); assay type: cell-based
# Experimental: as §1, with “For antibody neutralization assay, cancer cells were cultured in serum-free medium for 24 h, and treated with rhSTIP1 for another 24 h in the presence or absence of the STIP1 monoclonal antibody, which were pre-incubated at 37° C. for 1 h.” left out
# (§2) The effect of STIP1 polypeptide 520-543 on HSP90 function was evaluated using ovarian cancer cell line (MDAH2774) and endometrial cancer cell line (ARK2). […]
# [2] = system: HSP90 and STIP1 interaction; assay: HSP90-STIP1 interaction by immunoprecipitation (FIG. 12); assay type: cell-based; details: various concentrations of peptide
# Experimental: The effect of STIP1 polypeptide 520-543 on HSP90 and STIP1 interaction was evaluated by treating cancer cells with various concentrations of STIP1 polypeptide 520-543. HSP90-STIP1 interaction with evaluated using immunoprecipitation method.
# [3] = system: binding of STIP1 antibody to rhSTIP1; assay: Dot blot neutralization of STIP1 antibody binding to rhSTIP1 (FIG. 9B); details: antibody/polypeptide concentration ratios from 1:1 to 1:8
# Experimental: The entire rhSTIP1 at different concentrations were dot blotted on a nylon membrane, and incubated with STIP1 antibody. The STIP1 antibody was pre-incubated with STIP1 polypeptide 520-543 (SEQ ID NO:1), at various antibody/polypeptide concentration ratios (from 1:1 to 1:8).
# phosphor-STAT3 = assay: Western blot of phospho-STAT3 in cancer cells (FIG. 15A); assay type: cell-based; details: MDAH2774 and ARK2, forty-eight hours, various concentrations (FIG. 15A)
# Experimental: as §1, with “For antibody neutralization assay, cancer cells were cultured in serum-free medium for 24 h, and treated with rhSTIP1 for another 24 h in the presence or absence of the STIP1 monoclonal antibody, which were pre-incubated at 37° C. for 1 h.” left out
# as §2
# [4] = system: human ovarian cancer cells MDAH2774; assay: In vivo MDAH2774 subcutaneous tumor in nude mice (FIG. 14); details: 100 μg three times a week via the tail vein, versus control group
# Experimental: Nude mice were inoculated with 5×10^5 cells of human ovarian cancer cells MDAH2774 subcutaneously. 100 μg of STIP1 polypeptide 520-543 was administered three times a week via the tail vein.
structure (smiles),measurement,setting,value
CC[C@H](C)[C@H](NC(=O)[C@H](C)NC(=O)[C@@H](NC(=O)[C@H](CC(C)C)NC(=O)CNC(=O)[C@@H](NC(=O)[C@H](CC(=O)O)NC(=O)[C@H](CCSC)NC(=O)[C@H](CC(C)C)NC(=O)[C@H](CCCCN)NC(=O)[C@H](CCC(N)=O)NC(=O)[C@@H](NC(=O)[C@H](CCCCN)NC(=O)[C@H](CCC(N)=O)NC(=O)[C@H](C)NC(=O)[C@@H](NC(=O)[C@@H](NC(=O)[C@@H]1CCCN1C(=O)[C@H](CC(N)=O)NC(=O)[C@H](CCCCN)NC(=O)[C@H](CC(C)C)NC(=O)[C@H](Cc1c[nH]cn1)NC(=O)[C@@H](N)CCC(=O)O)C(C)C)[C@@H](C)CC)[C@@H](C)CC)C(C)C)[C@@H](C)CC)C(=O)N[C@@H](CCCNC(=N)N)C(=O)O [STIP1 polypeptide 520-543],Original O.D,"[1]; MTT, MDAH2774, peptide 25 uM, negative control 0.15",0.15
same,Normalized O.D,"[1]; MTT, MDAH2774, peptide 25 uM, negative control = 1",1.02
same,Normalized O.D,"[1]; MTT, MDAH2774, peptide 150 uM",0.49
same,Original O.D,"[1]; MTT, MDAH2774, peptide 150 uM",0.10
same,Cell viability (%),"[1]; MTT, MDAH2774, peptide 200 uM",28.64%
same,Normalized O.D,"[1]; MTT, MDAH2774, peptide 200 uM",0.29
same,Original O.D,"[1]; MTT, MDAH2774, peptide 200 uM",0.09
same,"cancer cell viability (in words, FIG. 10B and Table 2)","[1]; MTT, MDAH2774, transfected peptides",suppresses cancer cell viability in a dose-dependent fashion
same,Cell viability (%),"[1]; human, 48 h, 150 uM",49.03%
same,Bcl-XL protein,Bcl-XL,down-regulated
same,affinity to STIP1 antibody,STIP1 antibody,highest affinity
same,intracellular level of JAK2,"JAK2; MDAH2774 and ARK2, forty-eight hours, various concentrations (FIG. 15A)",decreased in dose dependent manner
same,JAK2 protein,JAK2; western blot FIG. 15B,down-regulated
same,binding ability of STIP1 to HSP90,[2],reduced
same,neutralization of STIP1 antibody binding to rhSTIP1,[3],neutralized the binding of STIP1 antibody to rhSTIP1 in a dose dependent fashion
same,intracellular level of phosphor-STAT3,phosphor-STAT3,decreased in dose dependent manner
same,size of the tumor mass,[4],less than that of the control group
